Two substances from patent publication EP3419977B1, “PLATINUM(II) RING-FUSED CHLORINS, METHODS AND USES THEREOF” (Universidade de Coimbra, priority 2016, dated 2017) can be followed below.

A short description of series [1]: Fluorescence quantum yield. Conditions: in toluene.
The conditions of series [2]: in toluene.
Setting [3] is: deaerated (nitrogen saturated) solution.

Where two headings read alike, the source gives them in different places. Marks after values point to notes of the source that are not given here.

In the case of “platinum (II) 2,3-dihydroxymethyl-4,5,6,7-tetrahydropyrazolo[1,5-α]pyridine-fused chlorin [Chlorin 8]”, the Phosporescence lifetime reads like this: (aqueous micellar system (Tween80/DMSO/water (2/2/96, v/v/v)), deaerated solution) 30.9^b,d µs; (aqueous micellar system (Tween80/DMSO/water (2/2/96, v/v/v)), presence of O2) 11.3^b,c µs; (in toluene, deaerated solution) 25.7^a,d µs; (in toluene, presence of O2) 0.5^a,c µs. In addition, the phosphorescence lifetime amounted to 9.40 µs (dearated ethanol solution (Figure 5B)) and 865 ns (ethanol solution, with oxygen (Figure 5A)). For the same substance, the φF in series [1] (presence of O2, room temperature) is 0.0001^c. Also, the φP in series [2] (O2 saturated solution (3 hours of bubbling with oxygen)) was 0.0002^e; in series [2] (setting [3]) it was 0.068^d; in series [2] (presence of O2 (air equilibrated, [O2]= 1.8×10^-3 M)), 0.0019^c.
Take “platinum (II) dimethyl 4,5,6,7-tetrahydropyrazolo[1,5-α]pyridine-2,3-dicarboxylate-fused chlorin [Chlorin 7b]”: the Phosporescence lifetime is recorded as 26.1^a,d µs (in toluene, deaerated solution) and 0.4^a,c µs (in toluene, presence of O2). Further, in series [1] (O2 saturated solution, room temperature), the φF is given as 0.0001^e. In addition, in series [2] (setting [3]), the φP is recorded as 0.088^d.
